Test [1] has as its system Panc-1. Nature of the test: MTT assay, growth inhibition of human tumor cells. In kind it is cell-based. The following applies: read-out: IC50 Panc-1, Panc-1 cells, 4 days treatment, several values = separate determinations.
In test [2] the test system is A549. Nature of the test: MTT assay, growth inhibition of human tumor cells. It is filed as cell-based. The following applies: read-out: IC50 A549, 4 days treatment, several values = separate determinations. A general note: Tetrazolium dyes change colour on reduction, which living cells bring about.

“And” between values parts separate entries of the source, which are not always exact repeats. Equal values may be shown once.

The term IC50 denotes the midpoint of a concentration-inhibition curve.

Regarding `[NH2][Pt]1([NH2])([O][As](O)O)([N+](=O)[O-])[O]c2ccccc2[O]1`, in test [1], the concentration for half-maximal inhibition (IC50) amounted to 73 µM.
On the same count and under the same terms, in the case of `[NH2][Pt]([NH2])([Cl])([Cl])([NH]Nc1cc([N+](=O)[O-])cc([N+](=O)[O-])c1)[N+](=O)[O-]` it was 3.3 µM and 4.5 µM.
Consider cis-[Pt^IV(NH3)2Cl2NO2(ONO)], for which the results for the half-maximal inhibitory concentration (IC50) in test [2] and in test [1] were 28 µM and 15 µM, respectively.

For the origin of these results see patent US8455543B2, “Platinum complexes and methods for inhibiting tumor cell proliferation” (University of South Florida, priority 2004, dated 2013).
